Only a part is listed here, and it is no random draw. The source made the active and inactive calls.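 How the source made its calls: active means inhibition above about 55% (limit read from the data); inconclusive means no clear call, values can overlap the other calls; inactive means the rest.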
Experiment: LAMP-1 surface exposure blockers, TALL-104 cells – cell-based, flow cytometry, MLPCN library, primary screen (AID 651702)
Conditions: TALL-104 LAMP-1 surface exposure, at 10 µM, hits give high values, cells stimulated with thapsigargin and PMA

Question: With `O=C(NCC1(N2CCOCC2)CCCCC1)c1cc(Br)ccc1Cl` as the molecule, how does the inhibition read?
Answer: inactive: 1%

Question: For `COc1cc(C(=O)NCC2(N3CCOCC3)CCCCC2)cc(OC)c1C`, which inhibition is on record?
Answer: inactive: -1.6%

Question: For `CCCCn1nnnc1C(c1ccccc1)N1CCC(n2c(=O)[nH]c3ccccc32)CC1` (stereo not given), which inhibition is on record?
Answer: inactive: -1.5%

Question: Which inhibition does the source give for `O=c1[nH]c2ccccc2n1C1CCN(C(c2ccnc3ccccc23)c2nnnn2C2CCCC2)CC1` (stereo not given) here?
Answer: inactive: -1.7%

Question: With `COc1ccc(C(=O)NCC2(N3CCOCC3)CCCCC2)cc1OC` as the molecule, how does the inhibition read?
Answer: inactive: 1.4%

Question: With `O=c1[nH]c2ccccc2n1C1CCN(C(c2cccs2)c2nnnn2C2CCCCC2)CC1` (stereo not given) as the molecule, how does the inhibition read?
Answer: inactive: -1.6%

Question: With `N/C(=N\O)c1c(N)no[n+]1[O-]` as the molecule, how does the inhibition read?
Answer: inactive: 0.6%

Question: For `CCOC(=O)N1CCC(Nc2ccc(C)cc2)CC1`, which inhibition is on record?
Answer: inactive: 5.6%

Question: With `COc1cccc(C(c2nnnn2C(C)(C)C)N2CCC(n3c(=O)[nH]c4ccccc43)CC2)c1OC` (stereo not given) as the molecule, how does the inhibition read?
Answer: inactive: 2.1%

Question: With `CCCCn1nnnc1C(c1cccc(OC)c1OC)N1CCC(n2c(=O)[nH]c3ccccc32)CC1` (stereo not given) as the molecule, how does the inhibition read?
Answer: inactive: 1.3%

Question: With `O=c1[nH]c2ccccc2n1C1CCN(C(c2cccs2)c2nnnn2C2CCCC2)CC1` (stereo not given) as the molecule, how does the inhibition read?
Answer: inactive: -3.5%

Question: Which inhibition does the source give for `O=C(OC1CN2CCC1CC2)C1c2ccccc2C=Cc2ccccc21` (stereo not given) here?
Answer: inactive: -0.6%

Question: With `CC(C)(C)OC(=O)N1CCC(N(C(=O)c2ccccc2)c2ccc(Cl)cc2)CC1` as the molecule, how does the inhibition read?
Answer: inactive: 2.8%

Question: For `N#Cc1ccc(C(=O)NCC2(N3CCCCC3)CCCCC2)cc1`, which inhibition is on record?
Answer: inactive: -3.8%

Question: With `CCCN1CCC(Nc2cc(OC)cc(OC)c2)CC1` as the molecule, how does the inhibition read?
Answer: inactive: -1.9%

Question: For `O=c1[nH]c2ccccc2n1C1CCN(C(c2ccccc2)c2nnnn2C2CCCC2)CC1` (stereo not given), which inhibition is on record?
Answer: inactive: -0.8%

Question: With `Cc1cc(N(CCCl)CCCl)ccc1C=O` as the molecule, how does the inhibition read?
Answer: inactive: -9.9%

Question: With `c1ccc(CN2CCC(Nc3ccccc3)CC2)cc1` as the molecule, how does the inhibition read?
Answer: inactive: -0.9%

Question: For `CN(C)C1(CNC(=O)c2cccc(C#N)c2)CCCCC1`, which inhibition is on record?
Answer: inactive: -4.5%

Question: With `CC(C)(C)n1nnnc1C(c1cccc2ccccc12)N1CCC(n2c(=O)[nH]c3ccccc32)CC1` (stereo not given) as the molecule, how does the inhibition read?
Answer: inactive: -0.8%

Question: Which inhibition does the source give for `COc1cc(OC)cc(C(=O)NCC2(N3CCCCC3)CCCCC2)c1` here?
Answer: inactive: -10.9%

Question: With `O=c1[nH]c2ccccc2n1C1CCN(C(c2ccnc3ccccc23)c2nnnn2C2CCCCC2)CC1` (stereo not given) as the molecule, how does the inhibition read?
Answer: inactive: -0.5%

Question: Which inhibition does the source give for `CCC(c1nnnn1C1CCCCC1)N1CCC(n2c(=O)[nH]c3ccccc32)CC1` (stereo not given) here?
Answer: inactive: -6.6%

Question: With `COc1cccc(C(c2nnnn2C2CCCCC2)N2CCC(n3c(=O)[nH]c4ccccc43)CC2)c1OC` (stereo not given) as the molecule, how does the inhibition read?
Answer: inactive: -0.5%

Question: For `CC(=O)N(c1ccccc1)C1CCNCC1`, which inhibition is on record?
Answer: inactive: -11%

Reference: PubChem BioAssay AID651702 (NMMLSC, 2012)
